Laboratory results reported in US9624287B2, “O-linked carbohydrate-modified insulin analogues” (Case Western Reserve University, priority 2012, dated 2017).

Amino acid sequences for entries named in this document (tags omitted). Residues count along the entry.
UniProt P08069, 741-1367 partner limits assumed: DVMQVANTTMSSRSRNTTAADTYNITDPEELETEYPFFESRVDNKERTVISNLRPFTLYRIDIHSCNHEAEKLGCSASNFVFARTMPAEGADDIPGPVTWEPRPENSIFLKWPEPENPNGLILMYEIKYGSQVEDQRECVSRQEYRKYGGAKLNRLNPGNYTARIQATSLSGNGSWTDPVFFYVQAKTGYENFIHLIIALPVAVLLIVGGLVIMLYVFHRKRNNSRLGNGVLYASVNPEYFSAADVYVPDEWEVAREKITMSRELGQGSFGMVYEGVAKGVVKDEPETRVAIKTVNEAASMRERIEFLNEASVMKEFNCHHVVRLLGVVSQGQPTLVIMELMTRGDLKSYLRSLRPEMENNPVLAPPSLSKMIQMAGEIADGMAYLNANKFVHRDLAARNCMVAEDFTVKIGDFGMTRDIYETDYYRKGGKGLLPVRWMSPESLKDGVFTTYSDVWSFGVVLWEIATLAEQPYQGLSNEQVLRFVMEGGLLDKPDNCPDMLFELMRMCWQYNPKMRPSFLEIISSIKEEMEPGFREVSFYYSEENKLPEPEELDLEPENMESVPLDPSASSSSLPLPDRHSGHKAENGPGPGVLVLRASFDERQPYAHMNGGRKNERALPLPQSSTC
UniProt P08069, 31-736 limits assumed: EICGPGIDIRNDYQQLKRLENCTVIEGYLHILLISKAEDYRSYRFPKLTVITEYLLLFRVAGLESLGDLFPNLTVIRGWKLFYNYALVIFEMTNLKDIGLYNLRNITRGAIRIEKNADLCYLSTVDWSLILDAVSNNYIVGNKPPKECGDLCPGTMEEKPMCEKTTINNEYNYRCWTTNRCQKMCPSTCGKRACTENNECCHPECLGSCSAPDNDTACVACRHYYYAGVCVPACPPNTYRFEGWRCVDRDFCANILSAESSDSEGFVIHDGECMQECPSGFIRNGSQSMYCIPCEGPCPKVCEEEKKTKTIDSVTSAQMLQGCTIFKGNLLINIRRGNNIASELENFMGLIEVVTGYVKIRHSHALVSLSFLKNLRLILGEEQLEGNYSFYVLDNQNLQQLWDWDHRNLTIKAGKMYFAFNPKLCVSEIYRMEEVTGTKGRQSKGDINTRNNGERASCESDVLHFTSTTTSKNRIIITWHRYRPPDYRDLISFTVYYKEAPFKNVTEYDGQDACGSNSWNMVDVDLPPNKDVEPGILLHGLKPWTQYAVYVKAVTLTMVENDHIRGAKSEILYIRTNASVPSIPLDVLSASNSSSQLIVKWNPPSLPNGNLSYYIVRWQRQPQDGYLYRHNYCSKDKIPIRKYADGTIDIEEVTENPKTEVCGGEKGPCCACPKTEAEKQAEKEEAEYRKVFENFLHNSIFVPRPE

Columns and labels:
[1] = target: human Type 1 IGF receptor (IGF-1R) (Homo sapiens, UniProt P08069); experiment: competitive displacement receptor-binding assay, IGF-1R; details: Table 1D; different preparation of receptor than in Tables 1A-1C; read-out: Dissociation Constant hIGF-1R
[2] = guanidine-induced denaturation monitored by circular dichroism; type: physicochemical; details: 25° C.

In the case of “α-D-mannopyranoside-O^β-Thr^B27-β-D-glucopyranoside-O^β-Thr^B30-[Glu^B31, Glu^B32]-KP-insulin”, the Kd [1] is reported as 0.0459 ± 0.00895 µM, the “ΔGu, free energy of unfolding (two-state model)” value ([2]; guanidine hydrochloride, pH 7.4, extrapolated to zero denaturant) is reported as 3.3 ± 0.1 kcal/mol and the “Cmid, concentration of guanidine-HCl required to unfold 50% of the protein” value ([2]; pH 7.4) is reported as 4.8 ± 0.2 M.
